From PubChem BioAssay (EPA / NIEHS) come the findings set out here.

Protein sequences, listed by entry. Tags and fused reporters are not part of them. Lines headed by an entry give the natural chain unless they say otherwise; changes in a name come on top.
UniProt P13500, whole entry, looked up: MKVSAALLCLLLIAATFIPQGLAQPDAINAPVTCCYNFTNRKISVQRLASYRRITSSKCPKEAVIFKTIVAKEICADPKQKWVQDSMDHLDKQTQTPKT
UniProt P16581: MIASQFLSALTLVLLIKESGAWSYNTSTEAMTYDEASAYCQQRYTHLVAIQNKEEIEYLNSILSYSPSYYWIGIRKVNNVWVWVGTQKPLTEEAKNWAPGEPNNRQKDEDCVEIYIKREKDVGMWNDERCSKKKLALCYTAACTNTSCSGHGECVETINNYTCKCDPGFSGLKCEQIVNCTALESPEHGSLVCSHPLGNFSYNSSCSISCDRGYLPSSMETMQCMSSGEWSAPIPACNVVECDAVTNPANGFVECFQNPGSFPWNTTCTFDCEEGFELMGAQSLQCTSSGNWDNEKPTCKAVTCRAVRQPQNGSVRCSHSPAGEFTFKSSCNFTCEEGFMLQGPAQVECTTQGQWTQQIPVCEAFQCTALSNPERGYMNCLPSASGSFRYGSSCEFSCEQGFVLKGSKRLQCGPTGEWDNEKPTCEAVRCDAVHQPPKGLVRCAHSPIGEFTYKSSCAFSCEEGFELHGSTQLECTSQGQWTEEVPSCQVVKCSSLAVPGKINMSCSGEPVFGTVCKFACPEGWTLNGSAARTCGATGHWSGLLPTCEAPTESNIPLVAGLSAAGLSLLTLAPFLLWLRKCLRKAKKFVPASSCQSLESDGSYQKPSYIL

Molecules are shown by their SMILES. Several values for one entry are separate records, joined by “and”; a condition that tells them apart may be missing. Equal values may be shown once. Only a part is listed here, and it is no random draw. A structure can be active in one record and inactive in another. Activity calls are given as the source filed them. The calls were made as follows: active = hit-call score of the fitted dose curve at least 0.9, where 1 is the maximum; inactive = score below 0.9.

The AC50 is the midpoint of the concentration-response curve, whichever way the signal moves.

Read-out in test [1]: Interleukin-1 alpha (IL1a), IL1A (gene 3552)
Kind of test: BSK_KF3CT_IL1a: BioMAP Diversity Plus: KF3CT Assay for Interleukin-1 alpha (IL1a) Biomarker Activity (AID 2283070). The note with it: actives raise or lower the signal; primary human keratinocytes with fibroblasts. The procedure:
BSK_KF3CT is a cell-based, multiplexed-readout assay that uses keratinocytes and foreskin fibroblasts, a human skin primary cell co-culture, with measurements taken at 24 hours after chemical dosing in a 96-well plate.BSK_KF3CT_IL1a is an assay component measured in the BSK_KF3CT assay. It measures IL-1a antibody related to regulation of gene expression using ELISA technology.Data from the assay component BSK_KF3CT_IL1a was analyzed into 1 assay endpoint. This assay endpoint, BSK_KF3CT_IL1a, was analyzed with bidirectional fitting relative to DMSO as the negative control and baseline of activity. Using a type of binding reporter, gain or loss-of-signal activity can be used to understand changes in the signaling as they relate to the gene IL1A. Furthermore, this assay endpoint can be referred to as a primary readout, because this assay has produced multiple assay endpoints where this one serves a signaling function. To generalize the intended target to other relatable targets, this assay endpoint is annotated to the cytokine intended target family, where the subfamily is interleukins.
The levels of cell surface (or secreted, indicated by the prefix "s") biomarker endpoints were measured by ELISA. Overt cytotoxicity to cells in confluent adherent cultures (all systems other than the BT system) was assessed by measuring total protein levels using sulforhodamine B (SRB) staining in parallel cultures at the time of biomarker measurements, indicated as SRB endpoints. For proliferation assays for adherent cell types, individual cell types are cultured at sub-confluence and relative cell numbers quantified by SRB staining at time points optimized for each system (48 h: 3C and CASM3C systems; 72 h: BT and HDF3CGF systems; 96 h: SAg system). SRB was performed by staining cells with 0.1% SRB after fixation with 10% TCA and reading wells at 560 nm.Viability and proliferation of PBMC (T cells) was quantified by Alamar Blue reduction for the SAg and BT systems. For PBMC viability (referred to as PBMC Cytotoxicity within the assay endpoint names), cells were plated (75,000/well in a 96-well plate) and then chemical samples added for 1 h before addition of activators, SEB and TSST-1 (20 ng/mL final concentration each). Cells were incubated for 90 h. Then, Alamar Blue (20 uL/well) (Invitrogen, Cat DAL1100) was added for 6 h, and the plates were read with a fluorescence microplate reader at 546/580 nm (excitation/emission). For PBMC proliferation, cells were plated and activated as above but incubated for only 16 h prior to addition of Alamar Blue. Plates were read after 6 h.

Read-out in test [2]: TIMP metallopeptidase inhibitor 2 (TIMP2), TIMP2 (gene 7077)
The test can be described thus: BSK_KF3CT_TIMP2: BioMAP Diversity Plus: KF3CT Assay for TIMP metallopeptidase inhibitor 2 (TIMP2) Biomarker Activity (AID 2283071). The note with it: actives raise or lower the signal; primary human keratinocytes with fibroblasts. The method in brief:
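Keratinocyte–fibroblast co-culture, 24 h exposure; TIMP-2 ELISA, DMSO-normalised bidirectional fit. Parallel SRB (0.1%, TCA-fixed, 560 nm) total-protein staining gauges cytotoxicity.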

Read-out in test [3]: Transforming growth factor beta 1 (TGFb1), TGFB1 (gene 7040)
Kind of test: BSK_KF3CT_TGFb1: BioMAP Diversity Plus: KF3CT Assay for Transforming growth factor beta 1 (TGFb1) Biomarker Activity (AID 2283072). The settings on record: actives raise or lower the signal; primary human keratinocytes with fibroblasts. The method in brief:
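Signal changes in either direction, relative to DMSO, define activity here. TGF-b1 is read by ELISA from a human keratinocyte-fibroblast co-culture 24 h post-dose.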

Read-out in test [4]: C-C motif chemokine 2 (Homo sapiens) (UniProt P13500)
The test can be described thus: BSK_KF3CT_MCP1: BioMAP Diversity Plus: KF3CT Assay for Monocyte Chemoattractant Protein 1 (MCP1/CCL2) Biomarker Activity (AID 2283073). The settings on record: actives raise or lower the signal; primary human keratinocytes with fibroblasts. In outline:
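Human keratinocyte–foreskin fibroblast co-culture; MCP-1 measured by ELISA 24 h after dosing. Bidirectional fit vs DMSO; cytotoxicity tracked by SRB total protein in parallel cultures.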

Read-out in test [5]: Matrix Metallopeptidase 9 (MMP9), MMP9 (gene 4318)
Kind of test: BSK_KF3CT_MMP9: BioMAP Diversity Plus: KF3CT Assay for Matrix Metallopeptidase 9 (MMP9) Biomarker Activity (AID 2283074).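 As to AC50: MMP9 protein level quantified by ELISA in the co-culture.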 The note with it: actives raise or lower the signal; primary human keratinocytes with fibroblasts. The method in brief: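 Human keratinocyte and foreskin fibroblast co-culture exposed to chemicals for 24 h; MMP9 biomarker measured by ELISA, bidirectional fitting relative to DMSO; cytotoxicity tracked by SRB total protein staining in parallel cultures.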

Read-out in test [6]: urokinase plasminogen activator (uPA), PLAU (gene 5328)
The test can be described thus: BSK_KF3CT_uPA: BioMAP Diversity Plus: KF3CT Assay for urokinase plasminogen activator (uPA) Biomarker Activity (AID 2283075). The note with it: actives raise or lower the signal; primary human keratinocytes with fibroblasts. The method in brief: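 Primary human keratinocyte/foreskin fibroblast co-culture exposed to chemical; uPA measured by ELISA at 24 h. Bidirectional fit versus DMSO, with parallel SRB total-protein staining for cytotoxicity.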

Read-out in a further test: CD40, CD40 (gene 958)
The test can be described thus: BSK_LPS_CD40: BioMAP Diversity Plus: LPS Assay for CD40 Biomarker Activity (AID 2283076). The note with it: actives raise or lower the signal; primary human HUVEC with PBMC. In outline:
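HUVEC plus PBMC co-culture stimulated with LPS; CD40 quantified by ELISA 24 h after compound dosing. Fitting was bidirectional relative to DMSO. SRB staining of parallel cultures flagged overt cytotoxicity.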

Read-out in test [7]: E-selectin (Homo sapiens) (UniProt P16581)
The test can be described thus: BSK_LPS_Eselectin: BioMAP Diversity Plus: LPS Assay for Eselectin Biomarker Activity (AID 2283077). The settings on record: actives raise or lower the signal; primary human HUVEC with PBMC. The method in brief:
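Human umbilical vein endothelial cells co-cultured with PBMC under LPS stimulation; cell-surface E-selectin measured by ELISA 24 h after dosing. Change in either direction versus DMSO, with SRB total-protein staining in parallel cultures for cytotoxicity.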

Read-out in test [8]: Interleukin-8 (IL8), CXCL8 (gene 3576)
The test can be described thus: BSK_LPS_IL8: BioMAP Diversity Plus: LPS Assay for Interleukin-8 (IL8) Biomarker Activity (AID 2283078). The settings on record: actives raise or lower the signal; primary human HUVEC with PBMC. In outline: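 Human umbilical vein endothelial cells co-cultured with PBMC, LPS-stimulated, exposed to compound for 24 h. IL-8 quantified by ELISA; fitted in both directions against DMSO, with SRB total-protein staining of parallel cultures for cytotoxicity.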

Test [9] is described as follows: BSK_LPS_SRB: Viability Assessment in the BioMAP Diversity Plus: LPS Assay (AID 2283079).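 Also: total protein by sulforhodamine B absorbance as a cytotoxicity measure; measured one day after compound addition; fitted in both directions against DMSO so loss or gain of signal counts.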 The settings on record: primary human HUVEC with PBMC. The method in brief: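 Co-culture of human umbilical vein endothelial cells and PBMC, read 24 h after dosing. Total protein by 0.1% SRB staining after 10% TCA fixation, absorbance at 560 nm; bidirectional fit against DMSO.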

Take `Cc1cc([N+](=O)[O-])cc([N+](=O)[O-])c1O`: the outcome in test [1], in test [2], in test [3], in test [4], in [5] and in test [6] was inactive. In addition, the outcome was “inactive” in the test with CD40, CD40 (gene 958); “inactive” in test [7]; “inactive” in test [9]. Moreover, the half-maximal activity concentration (AC50) in [8] is active: 10.1 µM.

For `CN(C(=O)Cc1cccc2occc12)[C@H]1CC[C@@]2(CCCO2)C[C@@H]1N1CCCC1`, the result in test [1], in test [2], in [3], in test [4], in test [5] and in [6] was inactive. In addition, the outcome is “inactive” with CD40, CD40 (gene 958); “inactive” in test [7]; “inactive” in test [8]; “inactive” in test [9].

For `O=C1C2CC=CCC2C(=O)N1SC(Cl)(Cl)C(Cl)Cl` (configuration not stated), the AC50 was active: 3.96 µM in test [1]; active: 2 µM in test [2]; active: 3.27 µM in test [3]; active: 3.31 µM in [4]; active: 2.15 µM in [5]; active: 3.72 µM in [6]. Also, the AC50 with CD40, CD40 (gene 958) was active: 13.3 µM; in [8] it was active: 11 µM.

As for `O=[N+]([O-])c1ccc([N+](=O)[O-])cc1`, the outcome in test [1], in test [2], in test [3], in test [4], in test [5] and in test [6] was inactive. The result in [7] and in test [9] was inactive. In addition, the AC50 with CD40, CD40 (gene 958) is active: 4.42 µM; in [8], active: 7.02 µM.

Take `CC(C)OP(=S)(OC(C)C)SCCNS(=O)(=O)c1ccccc1`: the result in test [1], in test [2], in test [3], in test [4] and in [6] was inactive. For the same compound, the AC50 in test [4] is active: 14.4 µM and active: 12.1 µM; in the test with CD40, CD40 (gene 958) it was active: 30.1 µM and active: 32.2 µM and active: 31.2 µM; in [8] it was active: 30.3 µM and active: 29.4 µM and active: 32.9 µM; in test [9], active: 33.8 µM and active: 27.2 µM and active: 31.1 µM.

For the compound `O=C(Cl)Oc1ccccc1`, the outcome in [1], in test [2], in test [3], in test [4], in [5] and in test [6] was inactive. Further, the outcome with CD40, CD40 (gene 958) was “inactive”; in test [7], “inactive”; in [8], “inactive”; in test [9] it was “inactive”.
